From PMC4701392
Blank lines part the entries; values can stand above or below the substance they belong to.

Key:
[1] = biological target: K315A mutant δ-crystallin (goose) (goose) (UniProt P33110); assay: AUC; sedimentation velocity, c(s) and c(s, f/f0) analysis, no urea, 0.2 mg/mL protein, 20°C, 50 mM Tris-acetic acid buffer pH 7.5
P33110 = assay: AUC; sedimentation velocity, c(s) analysis, wild type in 2.5, 3.0 and 3.5 M urea, 0.2 mg/mL protein, 20°C; dimer to monomers
[2] = biological target: wild-type δ-crystallin (goose) (goose) (UniProt P33110); assay: AUC; sedimentation velocity, c(s) and c(s, f/f0) analysis, no urea, 0.2 mg/mL protein, 20°C, 50 mM Tris-acetic acid buffer pH 7.5
[3] = biological target: wild-type δ-crystallin (goose) (goose) (UniProt P33110); assay: AUC; sedimentation velocity, c(s) analysis, wild type in 2.5, 3.0 and 3.5 M urea, 0.2 mg/mL protein, 20°C; dimer to monomers

stoichiometry N [1]: 4
Substance: K315A mutant δ-crystallin (goose) (from UniProt P33110 2-466) (natural protein)

Substance: wild-type δ-crystallin (goose)
proportion of the monomeric peak at 2.5 M urea (P33110): increased from 6% to 27% to 60%
proportion of the monomeric peak at 3.0 M urea (P33110): increased from 6% to 27% to 60%
proportion of the monomeric peak at 3.5 M urea (P33110): increased from 6% to 27% to 60%

stoichiometry N [2]: 4
stoichiometry N [3]: 2
Substance: wild-type δ-crystallin (goose) (from UniProt P33110 2-466) (natural protein)
